# Source: patent US9126999B2, “Tetrahydropyrazolopyrimidine compounds” (EISAI R&D MANAGEMENT CO., LTD., priority 2012, dated 2015)
# Chains of the proteins cited; added tags and fusions are not shown. Residues count along the entry.
# UniProt P58681, 27-1050 limits assumed: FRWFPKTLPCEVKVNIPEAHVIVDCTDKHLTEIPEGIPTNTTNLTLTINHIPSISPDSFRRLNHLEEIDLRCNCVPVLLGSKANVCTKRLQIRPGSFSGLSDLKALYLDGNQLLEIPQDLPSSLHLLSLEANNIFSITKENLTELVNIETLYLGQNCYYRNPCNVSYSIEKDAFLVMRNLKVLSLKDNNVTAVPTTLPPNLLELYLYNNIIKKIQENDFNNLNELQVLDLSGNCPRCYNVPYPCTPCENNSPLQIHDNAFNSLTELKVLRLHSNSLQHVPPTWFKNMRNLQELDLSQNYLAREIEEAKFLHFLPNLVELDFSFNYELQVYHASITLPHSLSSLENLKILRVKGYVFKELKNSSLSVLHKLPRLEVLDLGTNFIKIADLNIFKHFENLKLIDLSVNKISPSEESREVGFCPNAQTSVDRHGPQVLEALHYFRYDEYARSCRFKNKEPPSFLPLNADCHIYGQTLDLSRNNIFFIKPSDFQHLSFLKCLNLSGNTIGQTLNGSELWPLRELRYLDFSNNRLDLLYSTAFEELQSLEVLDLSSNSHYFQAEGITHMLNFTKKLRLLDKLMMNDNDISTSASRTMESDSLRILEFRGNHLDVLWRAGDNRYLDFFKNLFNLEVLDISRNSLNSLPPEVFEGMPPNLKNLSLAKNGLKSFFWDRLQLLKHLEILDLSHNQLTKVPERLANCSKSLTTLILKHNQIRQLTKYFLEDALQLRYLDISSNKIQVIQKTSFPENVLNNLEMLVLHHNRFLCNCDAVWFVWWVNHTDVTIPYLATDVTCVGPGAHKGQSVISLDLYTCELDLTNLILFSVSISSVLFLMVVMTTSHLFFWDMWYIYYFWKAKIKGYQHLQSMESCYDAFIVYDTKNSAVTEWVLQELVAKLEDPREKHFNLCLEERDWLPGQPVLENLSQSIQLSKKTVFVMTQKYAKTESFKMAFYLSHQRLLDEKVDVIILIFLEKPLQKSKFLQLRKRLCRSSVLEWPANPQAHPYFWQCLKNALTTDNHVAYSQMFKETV
# UniProt Q9NR97, 27-1041 limits assumed: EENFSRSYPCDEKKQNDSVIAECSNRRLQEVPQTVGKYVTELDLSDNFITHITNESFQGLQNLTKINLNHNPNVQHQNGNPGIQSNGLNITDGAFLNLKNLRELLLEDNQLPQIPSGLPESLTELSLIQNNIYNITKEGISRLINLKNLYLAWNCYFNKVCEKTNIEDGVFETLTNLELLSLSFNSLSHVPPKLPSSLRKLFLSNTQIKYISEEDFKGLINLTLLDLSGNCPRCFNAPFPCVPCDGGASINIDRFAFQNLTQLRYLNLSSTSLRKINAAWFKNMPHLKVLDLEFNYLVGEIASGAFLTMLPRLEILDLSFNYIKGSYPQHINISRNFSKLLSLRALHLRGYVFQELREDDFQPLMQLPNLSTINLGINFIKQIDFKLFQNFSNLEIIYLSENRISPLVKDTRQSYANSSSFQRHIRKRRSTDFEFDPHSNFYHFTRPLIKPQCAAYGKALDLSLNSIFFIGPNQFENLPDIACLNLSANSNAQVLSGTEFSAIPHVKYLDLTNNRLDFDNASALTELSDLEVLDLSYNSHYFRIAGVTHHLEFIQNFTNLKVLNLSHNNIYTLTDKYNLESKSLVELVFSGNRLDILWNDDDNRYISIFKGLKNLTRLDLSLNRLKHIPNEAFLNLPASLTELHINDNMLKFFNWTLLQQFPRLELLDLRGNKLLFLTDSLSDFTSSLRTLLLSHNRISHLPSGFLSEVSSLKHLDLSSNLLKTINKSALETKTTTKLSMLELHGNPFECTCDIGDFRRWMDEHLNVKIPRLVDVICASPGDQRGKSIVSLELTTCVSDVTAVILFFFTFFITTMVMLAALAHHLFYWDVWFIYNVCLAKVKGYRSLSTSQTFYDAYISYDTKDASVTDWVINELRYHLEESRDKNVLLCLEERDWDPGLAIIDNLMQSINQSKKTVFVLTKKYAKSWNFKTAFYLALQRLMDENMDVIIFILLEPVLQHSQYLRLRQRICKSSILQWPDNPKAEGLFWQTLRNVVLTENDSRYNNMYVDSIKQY
# Where two headings read alike, the source gives them in different places.
# How the values were obtained:
# Mouse TLR7 [1] = target: T1, Mouse TLR7 (Mus musculus, UniProt P58681); assay: Mouse spleen cell-based assay, R848 stimulus, IL-6 ELISA; conditions: read-out: Mouse Splenocyte IC50, Mouse Splenocyte IL-6 Inhibition (R848 Ligand)
# Method: Spleens were harvested from female BALB/c mice (Jackson Labs, Bar Harbor, Me.) euthanized by CO2. A single cell suspension was obtained by passing spleens through a 40 μm nylon cell strainer. Cells were washed twice with 50 ml PBS (Mediatech, Inc., Manassas, Va.) and red blood cells were lysed in 5 ml RBC Lysis buffer (eBioscience, Inc., San Diego, Calif.) for 5 minutes at room temperature. Cells were washed twice more in PBS and finally resuspended in supplemented RPMI-1640 at 2.5×10^6 cells/ml. Cells were plated at 100 μl/well (2.5×10^5 cells/well) in 96-well tissue culture treated plates (Falcon). Serial dilutions of compounds solubilized in 100% DMSO were added in triplicate to cells to yield a final concentration of 0.1% DMSO. Cells were incubated with compound for 30 minutes at 37° C., 5% CO2 before adding 100 μl/well of 740 nM R848 (Resiquimod; GLSynthesis, Worcester, Mass.) in complete media for a final concentration of 370 nM R848. Cells were incubated for 20 hours at 37° C., 5% CO2. Culture supernatants were collected, and levels of IL-6 were assessed by standard ELISA procedure according to the manufacturer's recommended protocol (BD Biosciences, Inc., San Diego, Calif.).
# Human TLR8 = Human TLR8 (Homo sapiens, UniProt Q9NR97); assay: HEK-293 NF-kappaB luciferase reporter assay, CL097 stimulus; type: cell-based; conditions: read-out: HEK/TLR8 IC50; human TLR8 in the HEK-293 assay format
# Text: In vitro pharmacology: HEK-293 cells (ATCC) were engineered to stably express a NF-kappaB transcription factor inducible E-selectin (ELAM-1) luciferase reporter derived from the plasmid pGL3 (Promega) containing base pairs −2241 bp to −254 bp from the promoter of the human E-selectin gene (Accession No. NM_000450). These cells were then subsequently engineered to stably and individually express human TLR4, TLR7 or TLR9 full-length ORF cDNAs. Human TLR4 cDNA (Accession No. NM_138554) was cloned into pcDNA 3.0 expression vector (Invitrogen). TLR4 transfected cells were also engineered to express human MD-2 co-receptor [MD-2 cDNA (Accession No. NM_015364) was cloned into the pEF-BOS vector] and were supplemented with 10 nM soluble CD14 (R&D Systems) in the media to optimize LPS responsiveness. Human TLR9 cDNA (Accession No. NM_017442) was cloned into the pBluescript II KS vector (Agilent). Human TLR7 cDNA (Accession No. NM_016562) was obtained from OriGene. HEK-293 cells stably expressing human TLR8 (Accession No. NM_138636) or mouse TLR7 (Accession No. NM_133211) were purchased from InvivoGen and were then stably transfected with pNiFty2(NF-kappaB)-luciferase reporter plasmid (InvivoGen). Each cell type was plated in Dulbecco's modified Eagle's medium (DMEM) containing 10% fetal bovine serum (FBS) at a density of 2.22×10^5 cells/ml into a 384-well plate and incubated for 2 days at 37° C., 5% CO2. Varying concentrations of antagonist compounds were then added. Cells were then incubated for another 30 minutes before adding the appropriate TLR agonist as follows (final concentrations indicated): lipopolysaccharide (LPS; Sigma) at 10 ng/ml for TLR4, CL097 (InvivoGen) at 3 ug/ml for human TLR7 and TLR8 and mouse TLR7, and CpG-2006-2A [sequence: […] (SEQ ID NO: 1) with phosphorothioate backbone, synthesized by Sigma-Aldrich] at 0.6 uM for TLR9.
# Human TLR7/8 = assay: Human PBMC cell-based assay, RNA-Ig (SL4-Ig) stimulus, cytokine ELISA; conditions: read-out: Human PBMC IC50, Human PBMC IL-6 Inhibition (SL4-Ig Ligand)
# Mouse TLR7 [2] = target: T1, Mouse TLR7; assay: Short-term in vivo (STIV) assay: plasma IL-6 after s.c. R848
# Method: Figure Legend: Female BALB/c mice were dosed by oral gavage with Vehicle alone (0.5% aqueous methyl-cellulose) or compound ER-892887 formulated in Vehicle at 100 mg/kg or 300 mg/kg. At 13 or 24 hours following oral dosing, mice were injected subcutaneously with 15 ug R848 to stimulate TLR7. Blood plasma was collected by cardiac puncture, and the IL-6 level at 1.5 hours after TLR7 stimulation was then assessed by standard ELISA procedure. Percent suppression indicated is relative to IL-6 induction following Vehicle control dosing. Statistical significance was determined by Mann-Whitney test.
# To assess compound potency in vivo against mouse TLR7, a short-term in vivo (STIV) assay was utilized. Briefly, mice were orally dosed with compounds and at various time points afterwards were injected subcutaneously with agonist R848 to stimulate TLR7. The plasma IL-6 level following R848 stimulation was then measured by ELISA to assess compound potency and duration-of-action. […] Therefore, the activity of compounds in the STIV assay can be confidently attributed to their modulation of the TLR7 pathway. A single oral dose of ER-892887 at 300 mg/kg suppresses the R848/TLR7/IL-6 pathway in vivo by 80-90% for at least 24 hours (see FIG. 1).
# Six to eight week old female BALB/c mice (Jackson Labs, Bar Harbor, Me.) were dosed by oral gavage in 200 ul volume with antagonist compounds formulated in 0.5% aqueous methyl-cellulose (Sigma, St. Louis, Mo.). At various time points afterwards, mice were injected subcutaneously (s.c.) in 100 ul volume with 15 ug R848 (Resiquimod; GLSynthesis, Worcester, Mass.) to stimulate TLR7. Blood plasma was collected by cardiac puncture, and levels of IL-6 at 1.5 hours after TLR7 stimulation were then assessed by standard ELISA procedure according to the manufacturer's recommended protocol (R&D Systems).
# [3] = time point 3 hr, dose 100 mg/kg oral
# [4] = time point 6 hr, dose 33 mg/kg oral
# [5] = time point 6 hr, dose 100 mg/kg oral
# [6] = time point 19 hr, dose 100 mg/kg oral
# [7] = time point 6 hr, dose 33 mg/kg oral, tested form: HCl
# [8] = time point 13 hr, dose 33 mg/kg oral, tested form: HCl
# [9] = time point 13 hr, dose 100 mg/kg oral, tested form: HCl
# [10] = time point 13 hr, dose 300 mg/kg oral, tested form: HCl
# [11] = time point 24 hr, dose 33 mg/kg oral, tested form: HCl
# [12] = time point 24 hr, dose 100 mg/kg oral, tested form: HCl
# [13] = time point 24 hr, dose 300 mg/kg oral, tested form: HCl
# [14] = time point 13 hr, dose 33 mg/kg oral
# [15] = time point 13 hr, dose 100 mg/kg oral
smiles,measurement,setting,value
CNC(=O)c1ccc(-c2cc3n(n2)C(C(F)(F)F)CC(c2ccc(OC)c(OC)c2)N3)cn1 (centres unmarked),IC50,Mouse TLR7 [1],630 nM
COc1ccc([C@@H]2C[C@H](C(F)(F)F)n3nc(-c4cccc(NC(C)=O)c4)cc3N2)cc1OC [ER-887734-00],IC50,Human TLR8,140 nM
COc1ccc([C@@H]2C[C@H](C(F)(F)F)n3nc(-c4ccc(C(N)=O)cc4F)cc3N2)cc1OC,IC50,Human TLR8,140 nM
same,IC50,Human TLR7/8,879 nM
same,IC50,Mouse TLR7 [1],280 nM
same,% Suppression vs. Vehicle,Mouse TLR7 [2]; [3],96%
same,% Suppression vs. Vehicle,Mouse TLR7 [2]; [4],86%
same,% Suppression vs. Vehicle,Mouse TLR7 [2]; [5],94%
same,% Suppression vs. Vehicle,"Mouse TLR7 [2]; time point 19 hr, dose 33 mg/kg oral",49%
same,% Suppression vs. Vehicle,Mouse TLR7 [2]; [6],52%
COc1ccc([C@@H]2C[C@H](C(F)(F)F)n3nc(-c4ccc(C(=O)N5CC(N)C5)cc4)cc3N2)cc1OC,IC50,Human TLR7/8; tested form: HCl,17 nM
same,IC50,Mouse TLR7 [1]; tested form: HCl,182 nM
same,% Suppression vs. Vehicle,Mouse TLR7 [2]; [7],71%
same,% Suppression vs. Vehicle,Mouse TLR7 [2]; [8],33%
same,% Suppression vs. Vehicle,Mouse TLR7 [2]; [9],43%
same,% Suppression vs. Vehicle,Mouse TLR7 [2]; [10],96%
same,% Suppression vs. Vehicle,Mouse TLR7 [2]; [11],35%
same,% Suppression vs. Vehicle,Mouse TLR7 [2]; [12],13%
same,% Suppression vs. Vehicle,Mouse TLR7 [2]; [13],45%
COc1cc(-c2cc3n(n2)[C@@H](C(F)(F)F)C[C@@H](c2ccc(OC)c(OC)c2)N3)ccn1,IC50,Human TLR8,70 nM
COc1ccc([C@@H]2C[C@H](C(F)(F)F)n3nc(-c4ccc(C(N)=O)c(Cl)c4)cc3N2)cc1OC,IC50,Human TLR8,1470 nM
same,IC50,Human TLR7/8,1710 nM
same,IC50,Mouse TLR7 [1],1750 nM
same,% Suppression vs. Vehicle,Mouse TLR7 [2]; [3],64%
same,% Suppression vs. Vehicle,Mouse TLR7 [2]; [4],68%
same,% Suppression vs. Vehicle,Mouse TLR7 [2]; [5],84%
same,% Suppression vs. Vehicle,Mouse TLR7 [2]; [14],18%
same,% Suppression vs. Vehicle,Mouse TLR7 [2]; [15],6%
COc1ccc([C@@H]2C[C@H](C(F)(F)F)n3nc(-c4ccc(C(=O)N[C@H]5CCNC5)cc4)cc3N2)cc1OC,IC50,Human TLR7/8; tested form: HCl,71 nM
same,IC50,Mouse TLR7 [1]; tested form: HCl,175 nM
same,% Suppression vs. Vehicle,Mouse TLR7 [2]; [7],0%
same,% Suppression vs. Vehicle,Mouse TLR7 [2]; [8],0%
same,% Suppression vs. Vehicle,Mouse TLR7 [2]; [9],28%
same,% Suppression vs. Vehicle,Mouse TLR7 [2]; [10],8%
same,% Suppression vs. Vehicle,Mouse TLR7 [2]; [11],0%
same,% Suppression vs. Vehicle,Mouse TLR7 [2]; [12],0%
same,% Suppression vs. Vehicle,Mouse TLR7 [2]; [13],3%
COc1ccc([C@@H]2C[C@H](C(F)(F)F)n3nc(-c4cc5[nH]ncc5cc4C)cc3N2)cc1OC,IC50,Mouse TLR7 [1],718 nM
COc1ccc([C@@H]2C[C@H](C(F)(F)F)n3nc(-c4ccc(C(=O)NCCCO)cc4)cc3N2)cc1OC,IC50,Human TLR7/8,164 nM
same,IC50,Mouse TLR7 [1],290 nM
same,% Suppression vs. Vehicle,Mouse TLR7 [2]; [3],30%
same,% Suppression vs. Vehicle,Mouse TLR7 [2]; [4],23%
same,% Suppression vs. Vehicle,Mouse TLR7 [2]; [5],0%
same,% Suppression vs. Vehicle,Mouse TLR7 [2]; [6],0%
COc1ccc([C@@H]2C[C@H](C(F)(F)F)n3nc(-c4ccc5[nH]c(=O)[nH]c5c4)cc3N2)cc1OC,IC50,Human TLR8,250 nM
same,IC50,Human TLR7/8,545 nM
COc1ccc([C@@H]2C[C@H](C(F)(F)F)n3nc(-c4cccc(NC(C)=O)c4)cc3N2)cc1OC [ER-887738-00],IC50,Human TLR8,> 10000 nM
COc1ccc([C@@H]2C[C@H](C(F)(F)F)n3nc(-c4ccc5[nH]ncc5c4C)cc3N2)cc1OC,IC50,Mouse TLR7 [1],230 nM
same,% Suppression vs. Vehicle,Mouse TLR7 [2]; [3],98%
same,% Suppression vs. Vehicle,Mouse TLR7 [2]; [4],98%
same,% Suppression vs. Vehicle,Mouse TLR7 [2]; [5],98%
same,% Suppression vs. Vehicle,Mouse TLR7 [2]; [14],4%
same,% Suppression vs. Vehicle,Mouse TLR7 [2]; [15],95%
COc1ccc([C@@H]2C[C@H](C(F)(F)F)n3nc(-c4cc5cn[nH]c5cc4C)cc3N2)cc1OC,IC50,Mouse TLR7 [1],448 nM
COc1ccc([C@@H]2C[C@H](C(F)(F)F)n3nc(-c4ccc(C(=O)NC5CNC5)cc4)cc3N2)cc1OC,IC50,Mouse TLR7 [1]; tested form: HCl,306 nM
same,% Suppression vs. Vehicle,Mouse TLR7 [2]; [7],35%
same,% Suppression vs. Vehicle,Mouse TLR7 [2]; [8],34%
same,% Suppression vs. Vehicle,Mouse TLR7 [2]; [9],56%
same,% Suppression vs. Vehicle,Mouse TLR7 [2]; [10],81%
same,% Suppression vs. Vehicle,Mouse TLR7 [2]; [11],25%
same,% Suppression vs. Vehicle,Mouse TLR7 [2]; [12],39%
same,% Suppression vs. Vehicle,Mouse TLR7 [2]; [13],70%
COc1ccc([C@@H]2C[C@H](C(F)(F)F)n3nc(-c4ccc(C(=O)N5CCC(N)C5)cc4)cc3N2)cc1OC (some centres unmarked),IC50,Human TLR7/8; tested form: HCl,27 nM
same,IC50,Mouse TLR7 [1]; tested form: HCl,200 nM
COc1ccc([C@@H]2C[C@H](C(F)(F)F)n3nc(-c4ccc(C#N)cc4)cc3N2)cc1OC,IC50,Human TLR8,1490 nM
same,IC50,Human TLR7/8,9850 nM
COc1ccc([C@@H]2C[C@H](C(F)(F)F)n3nc(-c4ccc(C(=O)N[C@@H]5CCNC5)cc4)cc3N2)cc1OC,IC50,Human TLR7/8; tested form: HCl,72 nM
same,IC50,Mouse TLR7 [1]; tested form: HCl,297 nM
same,% Suppression vs. Vehicle,Mouse TLR7 [2]; [7],0%
same,% Suppression vs. Vehicle,Mouse TLR7 [2]; [8],0%
same,% Suppression vs. Vehicle,Mouse TLR7 [2]; [9],28%
same,% Suppression vs. Vehicle,Mouse TLR7 [2]; [10],0%
same,% Suppression vs. Vehicle,Mouse TLR7 [2]; [12],0%
same,% Suppression vs. Vehicle,Mouse TLR7 [2]; [13],27%
Cc1nn(C)cc1[C@@H]1C[C@H](C(F)(F)F)n2nc(-c3ccc(NC(N)=O)cc3)cc2N1 (relative stereo),IC50,Human TLR8,460 nM
same,IC50,Human TLR7/8,1950 nM
same,IC50,Mouse TLR7 [1],3940 nM
